The list shows a part of the results, in another mix than the full data.
Target: Tumor necrosis factor receptor superfamily member 10B (Homo sapiens) (UniProt O14763)
Experiment: viability loss of caspase-8 NB7 cells with TRAIL – with/without TRAIL, luminescence panel, confirmation (AID 651596)
Settings: NB7 neuroblastoma + caspase-8, TRAIL sensitization, NB7 Caspase-8, mean of runs, at 10 µM, stronger effect = higher value

Chains of the proteins cited; added tags and fusions are not shown.
UniProt O14763, whole entry, looked up: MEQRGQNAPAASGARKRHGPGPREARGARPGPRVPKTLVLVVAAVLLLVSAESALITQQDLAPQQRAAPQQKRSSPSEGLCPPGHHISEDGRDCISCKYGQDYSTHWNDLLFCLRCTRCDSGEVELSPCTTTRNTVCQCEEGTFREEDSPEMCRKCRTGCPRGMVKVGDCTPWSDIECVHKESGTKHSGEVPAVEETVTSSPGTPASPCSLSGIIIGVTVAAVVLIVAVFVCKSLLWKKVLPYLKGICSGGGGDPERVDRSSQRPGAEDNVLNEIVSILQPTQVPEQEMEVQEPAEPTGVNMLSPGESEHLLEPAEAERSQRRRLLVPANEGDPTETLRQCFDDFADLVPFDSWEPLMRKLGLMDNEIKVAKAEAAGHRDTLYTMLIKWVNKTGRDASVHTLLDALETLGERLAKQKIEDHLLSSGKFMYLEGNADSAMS

Row | SMILES | activity [%]
1 | CCCCn1nnnc1C(c1cc2ccccc2o1)N1CCC(n2c(=O)[nH]c3ccccc32)CC1 (stereo unspecified) | 30.5

— PubChem BioAssay AID651596 (Sanford-Burnham Center for Chemical Genomics, 2012)
